Patent US20160008627A1, “METHODS AND DEVICES FOR VISIBLE LIGHT MODULATION OF MITOCHONDRIAL FUNCTION IN HYPOXIA AND DISEASE” (Clarimedix Inc., priority 2008, published 2016)
Like-named read-outs stand apart in the source and are kept apart here.

Experiments:
yeast cells = details: Hypoxia (1% O2); oxygen consumption vs control
[1] = system: nuclear COX genes for Cco (COX4, COX5a, COX6, COX8); details: for Relative Expression: average combined expression of COX4, COX5a, COX6, COX8, normalized to PMAI, control = 1.00, 1 mM nitrite, light 3 doses of 6.4 J/cm^2

## O=NO [+Nitrite, nitrite]
Yeast cells
  Fold Change (%): +3.7%
[1]; Hypoxia (1% O2), COX gene expression vs control
  Fold Change (%): −19.2%
[1]; Hypoxia (1% O2)
  Relative Expression: 0.808 ± 0.031
[1]; Normoxia
  Relative Expression: 1.024 ± 0.067
